# From patent US20210386729A1, “METHODS FOR TREATING LIVER DISORDERS USING FXR AGONISTS” (NOVARTIS AG, priority 2016, published 2021)
# Test: Safety and tolerability in healthy subjects
# Type: in vivo, human
# From the text: Elevated ALT resolved to within normal levels within 14 days and without intervention.
structure (smiles),measurement,setting,value
O=C(O)c1cc(F)c2nc(N3C4CC[C@H]3CC(OCc3c(-c5ccccc5OC(F)(F)F)noc3C3CC3)C4)sc2c1 (some centres unmarked) [Compound A],overall safety and pharmacological activity,daily doses of 10 μg to 90 μg,safe and pharmacological active
same,safety,single dose studies up to 3000 μg,No safety concerns were identified
